Values quoted from earlier work, collected in patent US20100136095A1, “Systems for modulating inflammation” (Searete LLC, a limited liability corporation of the State …, priority 2008, published 2010).

Amino acid sequences for entries named in this document (tags omitted). Residues count along the entry.
UniProt P09619, 33-1106: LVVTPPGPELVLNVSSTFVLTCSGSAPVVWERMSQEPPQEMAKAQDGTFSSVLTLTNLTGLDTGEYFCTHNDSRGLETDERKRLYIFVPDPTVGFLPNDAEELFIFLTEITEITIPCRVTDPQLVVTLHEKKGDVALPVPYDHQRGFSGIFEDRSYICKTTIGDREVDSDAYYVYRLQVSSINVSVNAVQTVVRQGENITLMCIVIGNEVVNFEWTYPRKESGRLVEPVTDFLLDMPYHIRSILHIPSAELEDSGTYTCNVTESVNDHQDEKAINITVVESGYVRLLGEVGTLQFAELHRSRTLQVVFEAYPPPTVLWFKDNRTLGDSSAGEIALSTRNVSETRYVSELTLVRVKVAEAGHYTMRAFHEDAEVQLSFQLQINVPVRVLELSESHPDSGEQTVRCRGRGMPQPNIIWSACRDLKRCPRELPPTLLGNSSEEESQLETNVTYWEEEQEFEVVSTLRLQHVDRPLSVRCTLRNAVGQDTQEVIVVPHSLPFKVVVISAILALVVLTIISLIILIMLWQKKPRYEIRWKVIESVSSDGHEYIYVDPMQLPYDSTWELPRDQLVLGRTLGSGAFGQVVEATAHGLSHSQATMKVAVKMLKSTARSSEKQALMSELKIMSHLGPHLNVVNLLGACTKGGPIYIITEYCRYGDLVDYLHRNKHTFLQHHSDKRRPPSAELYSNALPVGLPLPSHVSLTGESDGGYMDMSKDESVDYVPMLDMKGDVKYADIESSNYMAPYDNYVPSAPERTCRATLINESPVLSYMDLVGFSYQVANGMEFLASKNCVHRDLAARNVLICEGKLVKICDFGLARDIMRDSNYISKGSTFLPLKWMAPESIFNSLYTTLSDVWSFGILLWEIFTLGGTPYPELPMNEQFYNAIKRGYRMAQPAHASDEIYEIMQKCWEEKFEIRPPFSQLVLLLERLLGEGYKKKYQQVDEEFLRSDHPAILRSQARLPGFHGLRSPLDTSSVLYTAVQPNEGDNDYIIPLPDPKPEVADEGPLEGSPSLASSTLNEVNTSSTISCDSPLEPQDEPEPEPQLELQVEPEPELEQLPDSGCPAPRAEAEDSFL
UniProt P10721, 26-976: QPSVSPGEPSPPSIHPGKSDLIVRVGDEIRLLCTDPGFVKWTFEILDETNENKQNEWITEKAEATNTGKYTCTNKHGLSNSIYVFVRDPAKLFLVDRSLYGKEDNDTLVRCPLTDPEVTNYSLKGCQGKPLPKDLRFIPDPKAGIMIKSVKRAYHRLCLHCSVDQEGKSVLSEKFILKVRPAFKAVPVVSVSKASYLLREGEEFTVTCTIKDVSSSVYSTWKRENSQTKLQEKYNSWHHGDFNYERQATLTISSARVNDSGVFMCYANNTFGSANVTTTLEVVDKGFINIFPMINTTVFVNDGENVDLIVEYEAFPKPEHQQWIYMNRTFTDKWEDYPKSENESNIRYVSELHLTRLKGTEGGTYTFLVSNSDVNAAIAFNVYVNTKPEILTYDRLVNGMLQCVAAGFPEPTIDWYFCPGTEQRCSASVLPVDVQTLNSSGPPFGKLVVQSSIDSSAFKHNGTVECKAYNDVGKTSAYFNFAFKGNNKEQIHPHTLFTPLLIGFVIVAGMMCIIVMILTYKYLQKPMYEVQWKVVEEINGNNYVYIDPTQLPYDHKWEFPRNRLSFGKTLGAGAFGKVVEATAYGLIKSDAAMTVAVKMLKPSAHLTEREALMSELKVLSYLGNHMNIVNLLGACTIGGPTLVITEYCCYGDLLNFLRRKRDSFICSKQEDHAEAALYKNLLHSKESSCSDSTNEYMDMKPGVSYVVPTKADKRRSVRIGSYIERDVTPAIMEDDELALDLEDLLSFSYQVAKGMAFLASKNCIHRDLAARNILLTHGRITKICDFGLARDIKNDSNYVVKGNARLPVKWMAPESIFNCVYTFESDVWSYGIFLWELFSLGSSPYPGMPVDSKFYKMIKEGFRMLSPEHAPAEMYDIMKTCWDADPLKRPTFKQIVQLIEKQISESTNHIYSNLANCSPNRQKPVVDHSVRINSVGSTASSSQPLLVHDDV

What was measured:
[1] = molecular target: PDGFRβ (Homo sapiens, UniProt P09619); details: at nanomolar concentrations
[2] = molecular target: c-Kit (Homo sapiens, UniProt P10721); details: at nanomolar concentrations

**Q.** For `Cc1nc(Nc2ncc(C(=O)Nc3c(C)cccc3Cl)s2)cc(N2CCN(CCO)CC2)n1.O` [Dasatinib, N-(2-chloro-6-methylphenyl)-2-[[6-[4-(2-hydroxyethyl)-1-piperazinyl]-2-methyl-4-pyrimidinyl]amino]-5-thiazolecarboxamide, monohydrate], which “inhibition of PDGFRβ” value [1] is on record?
**A.** The value was “inhibits”.

**Q.** What about the “inhibition of c-Kit” value [2] of the same molecule?
**A.** The value was “inhibits”.
